# Values quoted from earlier work as cited in patent EP0649656B1, “Pharmaceutical compositions based on acriflavine useful for the treatment of herpes and zona” (priority 1993, dated 1995).
# Details: cited from earlier work
substance,measurement,value
acriflavine [ACF],solubilité dans le chloroforme,pratiquement insoluble
